In paper PMC7529893, “Structural basis for substrate recognition and chemical inhibition of oncogenic MAGE ubiquitin ligases” (Nature Communications, 2020):

System: Caco-2 cells
Assay: High throughput Caco-2 permeability
Details: 10 µmol/l, 2 h

Compound: Cn1ccc2cc(CNCCCNc3ccnc4cc(C(F)(F)F)ccc34)ccc21
- Papp A→B (read-out: Caco-2 permeability, A/B (nm/sec), apical to basolateral): 21.4 ×10⁻⁶ cm/s
- Papp B→A (read-out: Caco-2 permeability, B/A (nm/sec), basolateral to apical): 12.3 ×10⁻⁶ cm/s
